Source: patent US5556780A, “CDNAS encoding mouse and rat type-2 angiotensin II receptors and their expression in host cells” (The Board of Trustees for the Leland Stanford Junior …, priority 1993, dated 1996)

Molecular target: T1, rat AT2 receptor (Rattus norvegicus, UniProt P35351)
T1 construct: pMRAT2, a rat AT2 receptor full-length cDNA cloned into the expression vector pcDNA I; expressed in transfected cells; host or cells: COS-7 (transient)
T1 sequence (P35351 1-363): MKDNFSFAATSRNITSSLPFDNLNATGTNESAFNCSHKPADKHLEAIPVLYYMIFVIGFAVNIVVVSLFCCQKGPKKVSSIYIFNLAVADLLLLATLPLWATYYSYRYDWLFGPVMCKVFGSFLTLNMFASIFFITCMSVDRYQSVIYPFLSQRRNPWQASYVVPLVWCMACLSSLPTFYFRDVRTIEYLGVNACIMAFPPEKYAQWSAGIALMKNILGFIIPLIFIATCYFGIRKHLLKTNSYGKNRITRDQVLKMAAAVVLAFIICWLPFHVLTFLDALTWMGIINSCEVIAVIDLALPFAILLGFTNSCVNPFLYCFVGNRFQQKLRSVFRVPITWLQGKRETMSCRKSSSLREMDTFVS
Assay: Radioligand binding / displacement of 125I-CGP42112A on membranes of pMRAT2-transfected COS-7 cells
Description: cDNA prepared from size-fractionated (>1 kb) poly(A)^+ RNA (Sprague-Dawley whole rat fetus, 18 days postcoitum) was ligated into an expression vector pcDNAI (Invitrogen), and amplified in 900 pools of 1,000 clones. […] Sequencing of both strands of clone pMRAT2 was done by the dideoxy chain termination method with Sequenase (USB).
2 h after incubation at room temperature, bound and free ligands were separated with GF/C filters (Whatman). […] Each experiment was carried out at least twice in duplicate, and the results shown here represent one experiment.

Substance: Ang II: Angiotensin II is an octapeptide hormone (DRVYIHPF)
- order of inhibition potency (competition profiles) (displacement of 125I-CGP42112A, 150 pM radioligand): [Sar^1,Ile^8 ]-Ang II=CGP42112A≥Ang II>PD123319^10,15 >Ang I
- increase of binding affinity by DTT (with DTT): 50-100%
